# Measured values taken from PubChem BioAssay AID445 (National Center for Advancing Translational Sciences (NCATS), 2006).
# This is one part of the list. Inconclusive results are not listed. The source made the active and inactive calls. Calls follow the shape of the dose curve; as a rule, active = well fitted curve in the direction sought with a large enough effect in the signal ratio (not every such curve was filed as active); inconclusive = small, poorly fitted or top-dose-only effect, or a change in a side signal; inactive = flat fitted curve, though single readings scatter; the % refers to the signal ratio.
# Experiment: IkB Signaling;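 also: 0% = basal untreated cells and 100% = reference inhibitor full response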
# Settings: ABC-DLBCL IkBa-CBG/CBR dual luciferase ratio (green luciferase fused to IkBa over red control in OCI-Ly3 lymphoma cells), 4 h, scaled: untreated 0%, proteasome inhibitor 100%; at 57.1 µM (top of the series) unless noted
# Source text: NIH Molecular Libraries Screening Centers Network [MLSCN]
# NIH Chemical Genomics Center [NCGC]
# Nuclear factor kappa-B (NF-kappa-B) plays an important role in normal B cell development and survival. Diffuse large B cell lymphoma (DLBCL) is the most commonly observed type of non-Hodgkin's lymphoma. Gene expression analysis has identified an activated B cell-like subtype of DLBCL (ABC-DLBCL) which expresses known NF-kappa-B target genes. […] However, targets upstream of IKK have been largely unexplored and so nodes upstream of IKK in the NF-kappa-B pathway remain untested due to the lack of chemical probes.
# A cell-sensor assay for I-kappa-B-alpha stabilization was developed with NIH investigator Dr. R. Eric Davis in Dr. Louis M. Staudt's laboratory. The assay uses green (CBG68) and red (CBR) emitting beetle luciferases [Chroma-Glo(TM) developed by Promega Corp.] where the green luciferase is fused to I-kappa-B-alpha and the red luciferase is present in its native state. Both luciferase genes are stably present in the OCI-Ly3 human ABC DLBCL cell line, but their expression is under the control of tetracycline-inducible promoters. Following the addition of doxycycline to induce expression of the luciferases, the green luminescence in control cultures rises only slowly because the CBG fusion partner I-kappa-B-alpha is targeted by IKK activity for rapid degradation. In contrast, green luminescence rises rapidly in the presence of proteasome inhibitors or IKK inhibitors. The rise in red luminescence of CBR is not affected by proteasome or IKK inhibitors, and serves as normalization for cell number and nonspecific effects. Compounds were screened as a concentration-titration series that ranged from 57 uM to 0.7 nM.
# NCGC Assay Protocol Summary:
# Cells were seeded in 1536-well plates at 5000 cells/3ul in IMDM medium containing 0.5% FBS, w/o phenol red, L-glutamine, 25 mM HEPES, 3 mg/ml sodium bicarbonate. After centrifugation for 1 min. at 1000 rpm, 23 nl of compounds or DMSO were delivered to each well using a pin tool. Then 1ul 80ng/ml doxycycline was dispensed into white solid 1536-well plates and the plates were incubated at 37C/5% C02 in a cell incubator for 4 hrs. Then 4 ul Chroma-Glo luminescent substrate mix (Promega) was added to each well. The plate was incubated at R.T. for 10-15 min. The plates were measured on a ViewLux plate reader for green luminescence (540/20 nm filter) and red luminescence (618/8 nm filter). The green and red luminescent signals were corrected for red and green luminescence filter overlap using previously determined filter calibration constants (determined using the procedure outlined in the Promega Technical Manual). The %Activity was determined from the ratio of corrected green/red luminescent values. Green luminescent and ratio %Activity was determined by normalizing to the difference in signal between basal cells (0% Activity) and cells incubated with 10 uM of the proteasome inhibitor MG-132 (100% Activity). Red luminescent %Activity was normalized to the difference between red luminesence in basal cells (0%Activity) and zero luminescence (-100% Activity).
# Concentration-response curves were fitted to the signals arising from the green luminescence (I-kappa-B-alpha-luciferase fusion; IkB-luc) and the red luminescence (unfused luciferase; luc) as well as the calculated ratio. The concentration-effect curves were then classified based on curve quality (r2), response magnitude and degree of measured activity. Compounds were then categorized based on their concentration-response curves for all three datasets (Ikb-luc, luc and ratio).
# Keywords: IKK, I-kappa-B, IkB, IkBa, cytotoxicity, luminescence, MLSMR, MLSCN, NIH Roadmap, qHTS, NCGC
row,SMILES,IkBa stabilization activation
1,CCOP(=O)(Cl)Cl,inactive: -2.56%
2,O=C(NCC1(N2CCOCC2)CCCCC1)c1ccccc1Br,inactive: 1.27%
3,NC1CCCCC1.NP(=O)(O)N(CCCl)CCCl,inactive: 0.563% [at 11.4 µM]
4,N#CC1(Nc2ccccc2)CCN(CCc2ccccc2)CC1,inactive: 1.07%
5,COc1ccccc1C(=O)NCC1(N2CCOCC2)CCCCC1,inactive: -3.01%
6,O=C(NCC1(N2CCOCC2)CCCCC1)c1ccc(Cl)cc1,inactive: -1.46%
7,O=C(OC1CN2CCC1CC2)C1c2ccccc2Oc2ccccc21 (stereo not drawn),inactive: 2.96%
8,O=C(O)C1(Nc2ccccc2)CCN(Cc2ccccc2)CC1,inactive: 1.69% [at 11.4 µM]
9,CCOc1ncccc1C(=O)NCC1(N2CCOCC2)CCCCC1,inactive: -0.649%
10,CCC(CO)(C(=O)OC1CN2CCC1CC2)c1ccccc1 (stereo not drawn),inactive: 0.307%
11,Fc1ccccc1NC1CCN(Cc2ccccc2)CC1,inactive: 2.15%
12,CN(C)C1(CNC(=O)c2ccc(C(C)(C)C)cc2)CCCCC1,inactive: -1.52%
13,Cc1ccccc1C(=O)NCC1(N(C)C)CCCCC1,inactive: 1.32%
14,O=C(NCC1(N2CCOCC2)CCCCC1)c1ccc([N+](=O)[O-])cc1,inactive: -1.25%
15,O=C(NCC1(N2CCOCC2)CCCCC1)c1ccccc1[N+](=O)[O-],inactive: -1.55%
16,O=C(NCC1(N2CCOCC2)CCCCC1)c1ccccc1,inactive: 0.196%
17,ClCCOP(OCCCl)OCCCl,inactive: 0.247%
18,N/C(=N\O)c1c(N)no[n+]1[O-],inactive: 0.982%
